This note sets out measurements from PubChem BioAssay AID588391 (Broad Institute, 2011).

The chains behind the UniProt entries cited, without tags or fusion partners.
UniProt P07237, whole entry: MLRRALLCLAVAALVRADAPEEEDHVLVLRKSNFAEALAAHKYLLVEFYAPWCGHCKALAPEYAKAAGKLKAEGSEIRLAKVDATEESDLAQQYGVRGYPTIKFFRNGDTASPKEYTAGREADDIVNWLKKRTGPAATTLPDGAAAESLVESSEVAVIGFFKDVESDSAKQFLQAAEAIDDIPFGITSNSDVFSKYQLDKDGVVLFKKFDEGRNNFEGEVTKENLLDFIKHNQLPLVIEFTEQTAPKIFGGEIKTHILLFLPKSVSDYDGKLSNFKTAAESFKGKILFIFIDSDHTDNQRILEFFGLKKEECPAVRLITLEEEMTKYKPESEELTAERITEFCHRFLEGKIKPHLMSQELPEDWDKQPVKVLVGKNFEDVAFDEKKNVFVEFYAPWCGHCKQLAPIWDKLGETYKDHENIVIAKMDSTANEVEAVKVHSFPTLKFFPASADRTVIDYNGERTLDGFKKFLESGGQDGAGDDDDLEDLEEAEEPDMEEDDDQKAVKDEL

SMILES strings stand for the structures. The entries are a selection whose mix differs from that of the whole data set. Some salts or complexes appear as unconnected parts, following the source record. Active and inactive are the calls of the source.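 The calls were made as follows: active = mean inhibition across replicates of 30% or more, whatever share of single replicates reach that level; inconclusive = mean inhibition below 30% while every single replicate reaches 30%; inactive = the rest.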

The target in this assay is Protein disulfide-isomerase (Homo sapiens) (UniProt P07237). Put plainly: inhibitors of human PDI, primary screen, biochemical, turbidity, single point, plate reader (AID 588391).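 Also: absorbance from insulin aggregation driven by PDI reduction with DTT.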 The conditions noted are these: PDI insulin aggregation turbidity, A650, 90 min; at 10 µM; active compounds read high.
On to `CCOC(=O)c1ccc(NP(C)(=O)Oc2ccc(F)cc2)cc1` (centres undefined), for which the inhibition (in general, the relative decrease from the control value, in per cent) is inactive: -2.65%.
As to `COc1ccc(OP(C)(=O)Nc2ccc(SC(F)(F)F)cc2)cc1` (centres undefined), the inhibition was inactive: 2.96%.
For `CP(=O)(Nc1ccccc1)Oc1ccc(F)cc1` (centres undefined), the inhibition was inactive: -7.02%.
To `O=[N+]([O-])c1cc([N+](=O)[O-])c(OC2CCCCC2O)c([N+](=O)[O-])c1` (centres undefined) belongs inactive: 4.45%; to `CCCCCOc1ccc(NP(C)(=O)Oc2ccc(Cl)cc2Cl)cc1` (centres undefined), inactive: 15.3%.
Take `Cc1c([N+](=O)[O-])cc([N+](=O)[O-])c(Br)c1[N+](=O)[O-]`: the inhibition was inactive: -0.076%.
Regarding `CCN(CC)CCCOC(=O)C(O)(c1ccccc1)C1CCCCC1` (centres undefined), the inhibition was inactive: -1.83%.
To `CP(=O)(Nc1ccccc1F)Oc1ccccc1` (centres undefined) belongs inactive: -3.78%; to `CC(C)c1ccc(OP(C)(=O)Nc2ccc(SC(F)(F)F)cc2)cc1` (centres undefined), inactive: 5.92%; to `O=[N+]([O-])c1cc([N+](=O)[O-])c(Nc2ccc(Cl)cc2)c([N+](=O)[O-])c1`, inactive: -3.13%.
As for `COc1ccc2c(c1O)-c1c(O)c(OC)cc3c1[C@H](C2)[N+](C)(C)CC3.O=[N+]([O-])c1cc([N+](=O)[O-])c([O-])c([N+](=O)[O-])c1[O-]`, the inhibition is inactive: 0.935%.
The same measure for `O=C(OC1CN2CCC1CC2)c1ccc([N+](=O)[O-])cc1` (centres undefined): inactive: -1.84%; for `O=C(OCCN1CCN(CCOCc2ccccc2)CC1)C(O)(c1ccccc1)c1ccccc1`: inactive: 12%; for `CCOP(C)(=S)SCC(=O)NC(C)(CC)C(=O)O` (centres undefined): inactive: 0.244%.
Consider `CP(=O)(Nc1ccc(SC(F)(F)F)cc1)Oc1ccc(F)cc1` (centres undefined), for which the inhibition was inactive: 0.372%.
To `Cc1ccccc1NP(C)(=O)Nc1ccccc1C` belongs inactive: 6.29%; to `CP(=O)(Nc1ccc2c(c1)OCCO2)Oc1ccccc1` (centres undefined), inactive: 1.39%.
As for `CN(C)CCOC(=O)C(O)(c1ccccc1)C1CCCCC1` (centres undefined), the inhibition is inactive: 10.8%.
The same measure for `COc1ccc(NP(C)(=O)Oc2ccccc2OC)cc1` (centres undefined): inactive: -0.0515%; for `COc1ccc(OP(C)(=O)Nc2cccc(Br)c2)cc1` (centres undefined): inactive: 3.3%; for `Cc1c(C(c2ccc3c(c2)OCO3)c2c(C)n(C)n(-c3ccccc3)c2=O)c(=O)n(-c2ccccc2)n1C.O=[N+]([O-])c1cc([N+](=O)[O-])c(O)c([N+](=O)[O-])c1`: inactive: -8.24%.
The same measure for `O=[N+]([O-])c1ccc(OP2(=O)COCCO2)cc1` (centres undefined): inactive: 2.94%; for `Cc1cc(-c2cccc3ccccc23)c(C)cn1.O=[N+]([O-])c1cc([N+](=O)[O-])c(O)c([N+](=O)[O-])c1`: inactive: 4.99%.
To `O=[N+]([O-])c1cc([N+](=O)[O-])c(NCC2CCS(=O)(=O)C2)c([N+](=O)[O-])c1` (centres undefined) belongs inactive: 5.54%; to `CCOC(=O)c1ccc(NP(C)(=O)Oc2ccc(Cl)cc2)cc1` (centres undefined), inactive: 1.17%; to `CP(=O)(OC12CC3CC(CC(C3)C1)C2)OC12CC3CC(CC(C3)C1)C2`, inactive: -1.52%.
As for `COc1ccccc1OP(C)(=O)Nc1c(C)n(C)n(-c2ccccc2)c1=O` (centres undefined), the inhibition was inactive: 0.927%.
On to `O=C(OCCCN1CCCC1)C(O)(c1ccccc1)C1CCCCC1` (centres undefined), for which the inhibition is inactive: 1.72%.
`CP(=O)(Oc1ccccc1)N1CCOC1=O` (centres undefined): the inhibition is inactive: 13.1%.
Consider `CCc1ccc(OP(C)(=O)Nc2cccnc2)cc1` (centres undefined), for which the inhibition is inactive: 5.9%.
The same measure for `CCN(CC)CC(O)COC(=O)C(O)(c1ccccc1)C1CCCCC1` (centres undefined): inactive: -4.47%.
Regarding `COc1ccc(OP(C)(=O)Nc2ccc(Br)cc2)cc1` (centres undefined), the inhibition is inactive: -3.03%.
To `CN(C)C(=O)c1c([N+](=O)[O-])cc([N+](=O)[O-])cc1[N+](=O)[O-]` belongs inactive: 1.03%; to `CC(C)(C)c1ccc(OP(C)(=O)O)cc1`, inactive: 1.24%; to `COc1ccccc1OP(C)(=O)Nc1ccccc1Br` (centres undefined), inactive: -0.91%.
Take `CP(=O)(Nc1ccc(Cl)cc1)Oc1ccc(F)cc1` (centres undefined): the inhibition is inactive: 11.2%.
The same measure for `COc1ccc(OP(C)(=O)Nc2ccccn2)cc1` (centres undefined): inactive: 1.23%.
Consider `CN(C)CCOC(=O)C(O)(c1ccccc1)C1CCCC1` (centres undefined), for which the inhibition is inactive: 9.72%.
As for `COc1ccccc1OP(C)(=O)Nc1ccc(Br)cc1` (centres undefined), the inhibition was inactive: -1.95%.
To `CP(=O)(Nc1ccccn1)Oc1ccccc1` (centres undefined) belongs inactive: 0.612%; to `COc1ccccc1OP(C)(=O)Nc1ccc(C)cc1C` (centres undefined), inactive: 4.26%; to `CCc1ccc(OP(C)(=O)O)cc1`, inactive: -13.6%.
The same measure for `O=[N+]([O-])c1cc([N+](=O)[O-])c(Nc2ccccn2)c([N+](=O)[O-])c1`: inactive: -1.64%; for `Cc1c(NP(C)(=O)Oc2ccc(C(C)C)cc2)c(=O)n(-c2ccccc2)n1C` (centres undefined): inactive: -0.567%.
To `COc1ccccc1OP(C)(=O)Nc1ccc(C)c(C)c1` (centres undefined) belongs inactive: 5.94%; to `COc1ccc(OP(C)(=O)Nc2ccccc2Br)cc1` (centres undefined), inactive: 1.06%; to `O=C1C(O)=C([N+](=O)[O-])C(=O)C(O)=C1[N+](=O)[O-]`, inactive: -1.49%.
`Cc1cc(C)cc(OP(C)(=O)Nc2cccc(C(F)(F)F)c2)c1` (centres undefined): the inhibition was inactive: -0.655%.
The same measure for `CP(=O)(OCCOc1ccccc1)OCCOc1ccccc1`: inactive: -0.319%.
The same measure for `CP(=O)(Nc1ccc(Cl)cc1Cl)Oc1ccccc1` (centres undefined): inactive: 0.66%; for `CCCCCCCCCCCCCCCC1C[N+](C)(C)CCOP(C)(=O)O1` (centres undefined): inactive: 9.41%.
To `O=[N+]([O-])c1ccc2c(c1)C=Nc1ccccc1O2` belongs inactive: 16.7%; to `CC(C)(C)c1ccc(OP(C)(=O)Nc2ccc(SC(F)(F)F)cc2)cc1` (centres undefined), inactive: -4.18%; to `Cc1cccc(C)c1OP(C)(N)=O` (centres undefined), inactive: 5.49%.
On to `O=[N+]([O-])c1cc([N+](=O)[O-])c(Nc2cccnc2)c([N+](=O)[O-])c1`, for which the inhibition was inactive: 0.514%.
To `Cc1cc(C)cc(OP(C)(N)=O)c1` (centres undefined) belongs inactive: 7.59%.
Regarding `COc1ccccc1OP(C)(=O)Nc1cc(Cl)ccc1C` (centres undefined), the inhibition was inactive: 9.84%.
In the case of `COc1ccc(OP(C)(=O)Nc2cccc(F)c2)cc1` (centres undefined), the inhibition is inactive: 0.664%.
As for `COc1ccccc1OP(C)(=O)Nc1ccc(C)cc1` (centres undefined), the inhibition was inactive: 10.2%.
For `Cc1ccc(NP(C)(=O)Oc2ccccc2)c(C)c1` (centres undefined), the inhibition is inactive: 6.7%.
On to `CCOC(=O)c1ccc(NP(C)(=O)Oc2ccccc2)cc1` (centres undefined), for which the inhibition is inactive: -0.648%.
On to `CCN(CC)CCCOC(=O)C(O)(c1ccccc1)c1ccccc1`, for which the inhibition is inactive: 0.0095%.
On to `CCc1ccc(OP(C)(=O)N2CCN(c3ccc([N+](=O)[O-])cc3)CC2)cc1` (centres undefined), for which the inhibition was inactive: 4.78%.
The same measure for `CP(=O)(NC(=O)Nc1ccccc1)Oc1ccccc1` (centres undefined): inactive: 1.81%; for `Cc1cc(C)cc(OP(C)(=O)Nc2ccc(SC(F)(F)F)cc2)c1` (centres undefined): inactive: -3.89%; for `Cc1ccc(Nc2c([N+](=O)[O-])cc([N+](=O)[O-])cc2[N+](=O)[O-])cc1`: inactive: 1.3%.
To `Cc1cccc(C)c1OP(C)(=O)Nc1ccc(SC(F)(F)F)cc1` (centres undefined) belongs inactive: 4.54%.
`CP(=O)(Nc1ccc(SC(F)(F)F)cc1)Oc1ccc(Cl)cc1` (centres undefined): the inhibition is inactive: -2.74%.
On to `CP(=O)(Oc1ccccc1)OC(c1ccccc1)C(F)(F)F` (centres undefined), for which the inhibition is inactive: 4.35%.
The same measure for `CP(=O)(Nc1ccccn1)Oc1ccc(Cl)cc1` (centres undefined): inactive: -0.0065%; for `CCOC(=O)c1ccc(NP(C)(=O)Oc2ccc(OC)cc2)cc1` (centres undefined): inactive: -2.01%.
The same measure for `O=[N+]([O-])c1cc([N+](=O)[O-])c(O)c([N+](=O)[O-])c1.c1ccc(Oc2ccncc2)cc1`: inactive: 0.221%; for `CCOP(C)(=S)SCC(=O)NC(C)C(=O)O` (centres undefined): inactive: 1.65%; for `CP(=O)(Nc1ccccc1Br)Oc1ccccc1` (centres undefined): inactive: 9.23%.
To `COc1ccccc1OP(C)(=O)Nc1ccccc1` (centres undefined) belongs inactive: 2.99%; to `CP(=S)(Nn1cnnc1)Oc1ccccc1` (centres undefined), inactive: 8.05%.
With `O=[N+]([O-])c1cc([N+](=O)[O-])c(Nc2nnnn2CCO)c([N+](=O)[O-])c1`, the inhibition is inactive: 10.6%.
As for `CC1=C2N=C(C=C3N=C(C(C)=C4[N-][C@@](C)([C@@H]5N=C1[C@](C)(CCC(=O)NC[C@@H](C)OP(=O)([O-])O[C@H]1[C@@H](O)[C@@H](n6cnc7cc(C)c(C)cc76)O[C@@H]1CO)[C@H]5CC(N)=O)[C@@](C)(CC(N)=O)[C@@H]4CCC(N)=O)[C@@](C)(CC(N)=O)[C@@H]3CCC(N)=O)C(C)(C)[C@@H]2CCC(N)=O.[C-]#N.[Co+3]`, the inhibition is inactive: 2.47%.
Regarding `CCOC(=O)C(CC)C1=NC(C)(C)Cc2ccccc21.O=[N+]([O-])c1cc([N+](=O)[O-])c(O)c([N+](=O)[O-])c1` (centres undefined), the inhibition is inactive: 0.825%.
To `CP(=O)(Nc1ccc(SC(F)(F)F)cc1)Oc1ccccc1` (centres undefined) belongs inactive: -5.95%.
To `CCCOc1ccc(NP(C)(=O)Oc2ccc(Cl)cc2)cc1` (centres undefined) belongs inactive: 3.87%; to `COc1ccccc1OP(C)(=O)Nc1c(C)cccc1C` (centres undefined), inactive: 4.89%; to `CN1CCCCC1COC(=O)C1(O)c2ccccc2CCc2ccccc21` (centres undefined), inactive: -17%.
As to `O=[N+]([O-])c1cc([N+](=O)[O-])c(-n2nnc3ccccc32)c([N+](=O)[O-])c1`, the inhibition is inactive: -18.1%.
Regarding `Cc1nc2ccc3ccccc3c2s1.O=[N+]([O-])c1cc([N+](=O)[O-])c(O)c([N+](=O)[O-])c1`, the inhibition was inactive: 0.312%.
To `O=[N+]([O-])c1cc([N+](=O)[O-])c(-c2cnn(-c3ccccc3)c2)c([N+](=O)[O-])c1` belongs inactive: -3.27%; to `CCOC(=O)c1ccc(NP(C)(=O)Oc2cc(C)cc(C)c2)cc1` (centres undefined), inactive: -1.98%.
To `Cc1cc(C)cc(OP(C)(=O)Nc2ccc(C)cc2C)c1` (centres undefined) belongs inactive: -10.4%; to `COc1ccccc1OP(C)(=O)Nc1cccc(Br)c1` (centres undefined), inactive: -4.51%.
To `Cc1ccc(C)c(NP(C)(=O)Oc2ccccc2)c1` (centres undefined) belongs inactive: -5.86%; to `CP(=O)(Nc1cccc(Br)c1)Oc1ccccc1` (centres undefined), inactive: -5.08%.
On to `Cc1cc(C)cc(OP(C)(=O)Nc2ccccn2)c1` (centres undefined), for which the inhibition is inactive: 2.78%.
For `O=C(O)c1cccc(Nc2c([N+](=O)[O-])cc([N+](=O)[O-])cc2[N+](=O)[O-])c1`, the inhibition was inactive: -1.03%.
The same measure for `CC1=NCCc2c1[nH]c1ccccc21.O=[N+]([O-])c1cc([N+](=O)[O-])c(O)c([N+](=O)[O-])c1`: inactive: 1.29%.
